Reference: patent US20240299360A1, “ADAMTS INHIBITORS, PREPARATION METHODS AND MEDICINAL USES THEREOF” (Jiangsu Hengrui Pharmaceuticals Co., Ltd., priority 2020, published 2024)

Sequences of proteins named here, by UniProt entry; tags and fusion partners are left off. Residues count along the entry.
UniProt Q9UNA0, 262-622 limits assumed: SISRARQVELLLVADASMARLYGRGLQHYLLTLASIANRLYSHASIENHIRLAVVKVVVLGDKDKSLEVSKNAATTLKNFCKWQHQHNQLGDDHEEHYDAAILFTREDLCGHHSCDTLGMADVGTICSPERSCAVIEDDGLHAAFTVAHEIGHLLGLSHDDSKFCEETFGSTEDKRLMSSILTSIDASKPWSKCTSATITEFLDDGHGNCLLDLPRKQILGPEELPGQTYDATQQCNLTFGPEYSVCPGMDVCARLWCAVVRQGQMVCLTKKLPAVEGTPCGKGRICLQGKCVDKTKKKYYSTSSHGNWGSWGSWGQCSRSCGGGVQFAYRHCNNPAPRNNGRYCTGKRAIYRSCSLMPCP
UniProt O75173, 213-685 limits assumed: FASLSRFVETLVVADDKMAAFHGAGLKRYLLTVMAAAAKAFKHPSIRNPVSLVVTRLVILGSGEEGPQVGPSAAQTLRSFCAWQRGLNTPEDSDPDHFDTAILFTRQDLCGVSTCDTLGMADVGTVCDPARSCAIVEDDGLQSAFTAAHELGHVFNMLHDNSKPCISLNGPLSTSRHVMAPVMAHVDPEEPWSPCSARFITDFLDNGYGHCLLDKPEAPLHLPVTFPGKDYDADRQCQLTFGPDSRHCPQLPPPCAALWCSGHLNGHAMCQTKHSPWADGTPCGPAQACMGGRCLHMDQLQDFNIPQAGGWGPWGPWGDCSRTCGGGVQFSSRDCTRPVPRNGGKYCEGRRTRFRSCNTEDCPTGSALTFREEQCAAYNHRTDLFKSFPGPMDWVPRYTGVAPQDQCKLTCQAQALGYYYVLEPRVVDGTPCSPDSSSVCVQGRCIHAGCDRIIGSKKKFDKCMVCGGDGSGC

Columns and labels:
[1] = biological target: T1, ADAMTS-5 recombinant protein (Homo sapiens (Human), UniProt Q9UNA0); experiment: In vitro fluorescence (FRET-peptide) enzymatic assay of ADAMTS-5 activity; settings: read-out: ADAMTS-5 (IC50); FRET peptide substrate 8 μM, 10 nM enzyme, 37° C. 3 hours
Procedure: (§1) A FRET (fluorescence resonance energy transfer) peptide was cleaved by recombinant ADAMTS-4 or ADAMTS-5 proteins into two separate fragments resulting in an increase of fluorescence signal which was quantified. The peptide was 5-FAM-TEGEARGSVILLK(5-TAMRA)K-NH2, customized from ANASPEC. ADAMTS-4 recombinant protein (catalog #4307-AD) and ADAMTS-5 recombinant protein (catalog #2198-AD) were purchased from R&D Systems.
(§2) An assay buffer containing 50 mM HEPES pH 7.5, 100 mM NaCl, 5 mM CaCl2, 0.1% CHAPS and 5% Glycerol was prepared. A volume of 2.5 μl of compound in the assay buffer was dispensed to a 384-well plate, and 2.5 μl of ADAMTS-4 or ADAMTS-5 protein (final concentration in the reaction was 10 nM) was added. The compounds and proteins were pre-incubated at room temperature for 15 minutes. Then, 5 μl of substrate was added to each well. The final substrate concentrations for ADAMTS-4 and ADAMTS-5 were 15 μM and 8 μM, respectively. The fluorescence signal in each well was determined, after incubation at 37° C. for 3 hours, on a TECAN plate reader (Excitation, 490 nm; Emission, 520 nm).
(§3) The data was inputted into GraphPad Prism, and the IC50 values were calculated using function “log (inhibitor) vs. response—Variable slope (four parameters)”. (See Table 1)

[2] = biological target: T1, ADAMTS-5 recombinant protein; experiment: In vitro ELISA of ADAMTS-5 activity (Aggrecan-IGD enzymatic assay); settings: read-out: ADAMTS-5 (IC50); aggrecan-IGD substrate, ARGSVIL-peptide ELISA, 37° C. 45 minutes
Procedure: In this assay, the enzymatic activity of recombinant ADAMTS-5 protein (catalog #2198-AD, R&D Systems) was assayed with a protein substrate, the aggrecan IGD protein. The aggrecan IGD protein is a polypeptide connecting human aggrecan globular domains 1 and 2 (T331-G458) expressed in E. Coli with a C-terminal His-tag (catalog #30411000, BIOTEZ). The enzymatic product ARGSVIL-peptide was detected using an ELISA kit from BioTEZ (catalog #30510111).
An assay buffer containing 50 mM HEPES pH 7.5, 100 mM NaCl, 5 mM CaCl2), 0.1% CHAPS and 5% Glycerol was prepared. Recombinant ADAMTS-5 protein was diluted to 0.3 nM in the assay buffer. Ten μl of […] and 10 μl of compound solution was transferred to each well of a 96-well plate and incubated at room temperature for 15 minutes. Substrate aggrecan-IGD was diluted to 100 nM with the assay buffer and 20 μl was added to each well. The plate was incubated at 37° C. for 45 minutes. After incubation, the newly generated epitope ARGSVIL-peptides were measured using the Aggrecanase Activity ELISA Assay Kit following the manufacturer's instructions. Then, 100 μl of stop solution was added and the absorbance of each well was read at 450 nm, using […] as reference on a TECAN plate reader.
A standard curve of the ELISA assay was generated in GraphPad Prism using Sigmoidal 4PL function and the corresponding peptide concentrations were calculated based on the standard curve. The IC50 values were calculated using function “log (inhibitor) vs. response—Variable slope (four parameters)”. (See Table 2).

[3] = biological target: ADAMTS-4 recombinant protein (Homo sapiens (Human), UniProt O75173); experiment: In vitro fluorescence (FRET-peptide) enzymatic assay of ADAMTS-4 activity; settings: read-out: ADAMTS-4 (IC50); FRET peptide substrate 15 μM, 10 nM enzyme, 37° C. 3 hours
Procedure: as §1, §2, §3

[4] = test system: mouse femoral head cartilage; experiment: Mouse explant assay (IL-1α induced GAG release); settings: inhibition of GAG release, IL-1α 1 ng/ml, 72 hours; for Inhibition % at 2 μM: compound 2 μM; for Inhibition % at 20 μM: compound 20 μM
Procedure: In this assay, fresh mouse femoral head cartilage was treated with IL-1α protein (Sigma-Aldrich, catalog #12778) in culture media, which induces the cartilage catabolism. Then, the GAGs attached to the cleaved aggrecan fragments (released in the media) and the GAGs attached to the intact aggrecan were measured by dimethylmethylene blue dye in the Glycosaminoglycans Assay Kit (Chondrex, catalog #6022).
Femoral head cartilage samples were isolated from mice (25 days old, male, C57BL/6, from Charles River Lab) and put into 2.0 ml tubes filled-up with media (DMEM, 10% FBS, 4 mM Glutamine, penicillin-streptomycin, 20 mM HEPES). Two hundred μl of media without FBS was added to each well of a 48-well plate, and one piece of cartilage was transferred to a well in the plate. Then the media was aspirated, and compounds and IL-1α protein were added to the plate in a total volume of 400 μl of fresh media without FBS. The final concentration of IL-1α was 1 ng/ml. The plate was incubated at 37° C. for 72 hours in a humidified incubator with 5% CO2 supply.
The supernatant was transferred to a 1.5 ml tube and kept at −20° C. Each cartilage sample was transferred to another 1.5 ml tube containing 400 μl of freshly made papain solution. The papain solution contained 125 μg/ml papain (Sigma-Aldrich, catalog #P3125), 0.1 M sodium acetate (Sigma-Aldrich, catalog #S7899), pH 5.5 and 5 mM EDTA and 5 mM L-cysteine-HCl (Sigma-Aldrich, catalog #C7880). The cartilage samples were kept rocking in a 60° C. water bath for 24 hours. The lysates were vortexed for 10 seconds and spinned at 10,000 rpm for 2 minutes.
Both the supernatant and the lysate samples were diluted with PBS and mixed with 100 μl of dye from the Glycosaminoglycans Assay Kit. The optical density from each well was determined with a TECAN plate reader set to a wavelength of 525 nm.
The concentrations of GAGs in the supernatant and lysates were determined based on the standard curve with a dose range of chondroitin sulfate provided in the kit. The percentage of GAG release was calculated as the following
The test compound effect was expressed as the percent of inhibition using the following formula: […]

IC50 [1] [nM] | IC50 [3] [nM] | Structure (SMILES) | IC50 [2] [nM] | Inhibition % at 2 μM [4] [%] | Inhibition % at 20 μM [4] [%]
12 | 8 | CC1CN(C(=O)CC[C@@]2(C3CC3)NC(=O)NC2=O)CCc2cc(Cl)c(Cl)cc21 (single isomer, unassigned) [compound with shorter retention time in 37-1 and 37-2] | – | – | –
7 | 3 | CC(C[C@@]1(C2CC2)NC(=O)NC1=O)C(=O)N1Cc2cc(Cl)c(Cl)cc2C1 (mixture of isomers) [Example 34-2, (5S)-5-cyclopropyl-5-(3-(5,6-dichloroisoindolin-2-yl)-2-methyl-3-oxopropyl)imidazolidine-2,4-dione] | 18 | 71 | 100
9 | 12 | CC(C[C@]1(C2CC2)NC(=O)NC1=O)C(=O)N1Cc2ccc(C(F)(F)F)cc2C1 (single isomer, unassigned) | – | – | –
9 | 8 | CC(C[C@@]1(C2CC2)NC(=O)NC1=O)C(=O)N1Cc2ccc(C(F)(F)F)cc2C1 (single isomer, unassigned) | 19 | 46 | 99
– | – | Cn1ccnc1C1(CCC(=O)N2Cc3cc(Cl)c(C(F)(F)F)cc3C2)NC(=O)NC1=O (single isomer, unassigned) | – | 31 | 70
7.1 | 12 | CCC(C[C@@]1(C2CC2)NC(=O)NC1=O)C(=O)N1Cc2ccc(C(F)(F)F)cc2C1 (single isomer, unassigned) | 18 | 65 | 97
– | – | Cn1ccnc1C1(CCC(=O)N2Cc3ccc(C(F)(F)F)cc3C2)NC(=O)NC1=O (single isomer, unassigned) | – | 27 | 60
98 | 52 | CC1CN(C(=O)CC[C@@]2(C3CC3)NC(=O)NC2=O)CCc2cc(Cl)c(Cl)cc21 (single isomer, unassigned) [compound with longer retention time in 37-1 and 37-2] | – | – | –

Structure (SMILES) | IC50 [1] [nM] | IC50 [3] [nM] | IC50 [2] [nM] | Inhibition % at 2 μM [4] [%] | Inhibition % at 20 μM [4] [%]
CC1CN(C(=O)CC[C@@]2(C3CC3)NC(=O)NC2=O)CCc2ccc(Cl)c(Cl)c21 (single isomer, unassigned) [compound with shorter retention time in 38-1 and 38-2] | 42 | 120 | 52 | – | –
CC1CN(C(=O)CC[C@@]2(C3CC3)NC(=O)NC2=O)CCc2ccc(Cl)c(Cl)c21 (single isomer, unassigned) [compound with longer retention time in 38-1 and 38-2] | 110 | 330 | 220 | – | –
CC1c2cc(C(F)(F)F)c(Cl)cc2CN1C(=O)CC[C@@]1(C2CC2)NC(=O)NC1=O (single isomer, unassigned) | – | 50 | 17 | 50 | 74
